Experimental data: patent US4610994A, “1,2,3-triazole anticonvulsant drugs” (priority 1984, dated 1986)

Legend:
[1] = system: subcutaneous Metrazol seizures; experiment: subcutaneous Metrazol Seizure Threshold Test (sc Met) in mice
[2] = system: maximal electroshock seizures; experiment: maximal electroshock seizure (MES) pattern test in rats; details: p.o.

With `O=C1NC(=O)C(c2ccccc2)(c2ccccc2)N1` [Phenytoin] the “P.I. by the sc Met test” value ([1]; mice, p.o.) was < 0.29 and the “P.I. by the MES test” value [2] was > 100.

`CCC1(c2ccccc2)C(=O)NC(=O)NC1=O` [Phenobarbital] was tested, and the “effectiveness by the sc Met test” value ([1]; mice i.p.) was “effective by all four anticonvulsant tests”.
